# Binding of CDR-mutated scFvs to a peptide of the spike HR2 region

From the AlphaSeq antibody data of Li et al. 2023 (doi:10.1038/s41467-023-39022-2), copy in the FLAb collection.

Target: peptide PDVDLGDISGINAS, taken from heptad repeat 2 (HR2) of SARS-CoV-2 spike.

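Phage display of a naive human antibody library on the peptide gave the parent. These sequences belong to a second round, designed from the earlier measurements on random variants of the parent. Group labels follow the data file (Ctrl: baseline library sampled from a position-specific scoring matrix, with some repeated check sequences; En: ensemble of fine-tuned language models; GP: Gaussian process model; HC: hill climbing; Gen: genetic algorithm; Gibbs: Gibbs sampling; a sequence that several methods proposed may carry one label only). AlphaSeq pools MATa yeast showing the antibodies with MATalpha yeast showing the peptide. After mating in shaken culture at 30 °C for 16 h, diploids were selected and their barcode pairs sequenced. The ratio of observed to expected reads was calibrated, replicate by replicate, on BCL2-family standards whose Kd was known from biolayer interferometry. Each pool was mated in six replicate cultures.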

Parent scFv Ab-14: VH joined to VL by a (GGGGS)3 linker. Changes lie in the light chain CDRs alone.
VH: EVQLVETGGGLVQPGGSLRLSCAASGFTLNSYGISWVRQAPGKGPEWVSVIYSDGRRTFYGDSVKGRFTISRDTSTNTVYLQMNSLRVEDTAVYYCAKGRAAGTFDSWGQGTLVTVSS
VL: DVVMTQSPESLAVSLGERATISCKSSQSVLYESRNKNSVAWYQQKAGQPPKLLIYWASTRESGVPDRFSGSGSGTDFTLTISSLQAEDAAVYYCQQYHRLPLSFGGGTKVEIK

The whole VL of each variant is written out. Each Kd is an estimate from the mating assay, the geometric mean of the replicates in which the pair was seen; lower is stronger. "nd" means that the variant was in the library but no mating with the target was seen in any replicate; the authors take this as a sign of poor binding, and no number exists. Three control strains display no target. For all light chain designs, 4% of the pairings with them gave a signal, with a median of 430 nM and one signal in twenty below 38 nM, so weak values seen in few replicates may be background.

{"VL": "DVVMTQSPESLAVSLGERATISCIISGSALMESRNKNSVAWYQQKAGQPPKLLIYNAETREYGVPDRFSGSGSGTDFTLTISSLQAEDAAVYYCQHYDRLPLSFGGGTKVEIK", "group": "En_HC", "Kd (apparent)": "180 nM", "detected": "5 of 6"}
{"VL": "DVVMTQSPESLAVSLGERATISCKLLQVTGYESYVRNSVAWYQQKAGQPPKLLIYQMSTRAEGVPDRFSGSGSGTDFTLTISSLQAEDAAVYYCQDYNRLPLSFGGGTKVEIK", "group": "En_HC", "Kd (apparent)": "2.0 nM", "detected": "6 of 6"}
{"VL": "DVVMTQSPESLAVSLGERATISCHVSSMDMEDGGIKKSVAWYQQKAGQPPKLLIYDMKITERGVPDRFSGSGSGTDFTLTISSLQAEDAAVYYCQQYMRLPLSFGGGTKVEIK", "group": "En_Gibbs", "Kd (apparent)": "2.4 nM", "detected": "6 of 6"}
{"VL": "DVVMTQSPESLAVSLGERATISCKITDKFLGLGNGRQNIAWYQQKAGQPPKLLIYHAMVAVEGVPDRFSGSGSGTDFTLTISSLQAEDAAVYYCQQYQQLPLAFGGGTKVEIK", "group": "En_Gibbs", "Kd (apparent)": "10 nM", "detected": "6 of 6"}
{"VL": "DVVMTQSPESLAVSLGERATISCKLSMVTGHMSKAKNNVAWYQQKAGQPPKLLIYEMVTREEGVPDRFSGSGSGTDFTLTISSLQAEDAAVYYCQQYNRLPLSFGGGTKVEIK", "group": "En_Gen", "Kd (apparent)": "22 nM", "detected": "6 of 6"}
{"VL": "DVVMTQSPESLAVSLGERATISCKVSQSVLYESRNKNSVAWYQQKAGQPPKLLIYQGSTRESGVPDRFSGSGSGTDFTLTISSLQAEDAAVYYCQQYHRLPLSFGGGTKVEIK", "group": "GP_Gen", "Kd (apparent)": "810 pM", "detected": "6 of 6"}
{"VL": "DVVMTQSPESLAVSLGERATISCMVNGILDHMSKNTNSVAWYQQKAGQPPKLLIYETSTRESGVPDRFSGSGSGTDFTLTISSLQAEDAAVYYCQQYDRLPLFFGGGTKVEIK", "group": "En_Gen", "Kd (apparent)": "2.2 nM", "detected": "6 of 6"}
{"VL": "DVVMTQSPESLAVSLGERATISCSLGLVTMLEYANRNNVAWYQQKAGQPPKLLIYNNSTREEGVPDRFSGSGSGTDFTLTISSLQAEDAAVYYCQQYDRLPLSFGGGTKVEIK", "group": "En_Gen", "Kd (apparent)": "4.7 µM", "detected": "1 of 6"}
{"VL": "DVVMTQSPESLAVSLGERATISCKSSQSVLDESRNKNSVAWYQQKAGQPPKLLIYWASTRESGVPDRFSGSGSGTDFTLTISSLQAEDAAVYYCQTYHRLPLSFGGGTKVEIK", "group": "Ctrl", "Kd (apparent)": "19 nM", "detected": "6 of 6"}
{"VL": "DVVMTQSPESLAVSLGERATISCKIGHQMVGNWKTHNNIAWYQQKAGQPPKLLIYQGDTRGSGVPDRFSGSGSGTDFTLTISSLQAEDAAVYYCQSYDRLPLSFGGGTKVEIK", "group": "En_Gibbs", "Kd (apparent)": "16 nM", "detected": "6 of 6"}
{"VL": "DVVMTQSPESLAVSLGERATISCHSSPSVDYESRNKNSVAWYQQKAGQPPKLLIYNASTRESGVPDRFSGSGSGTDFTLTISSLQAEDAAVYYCQQYHRLPLSFGGGTKVEIK", "group": "GP_HC", "Kd (apparent)": "74 nM", "detected": "1 of 6"}
{"VL": "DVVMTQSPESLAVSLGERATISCKLSQSVLMESRNKNSVAWYQQKAGQPPKLLIYHASTRESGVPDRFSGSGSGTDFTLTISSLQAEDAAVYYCQQYHRLPLSFGGGTKVEIK", "group": "GP_Gen", "Kd (apparent)": "1.3 nM", "detected": "6 of 6"}
{"VL": "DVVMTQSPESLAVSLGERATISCKLSQSVLYEQRNKNNVAWYQQKAGQPPKLLIYNASTRESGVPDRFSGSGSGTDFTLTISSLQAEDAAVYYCQQYHRLPLSFGGGTKVEIK", "group": "GP_Gen", "Kd (apparent)": "300 pM", "detected": "6 of 6"}
{"VL": "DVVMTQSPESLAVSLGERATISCKSSQSVGYESRNYNSVAWYQQKAGQPPKLLIYWASTRESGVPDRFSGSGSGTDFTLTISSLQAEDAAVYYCQQYHRTPLSFGGGTKVEIK", "group": "Ctrl", "Kd (apparent)": "31 nM", "detected": "6 of 6"}
{"VL": "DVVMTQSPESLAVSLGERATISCKDSQSVLYESRNKNMVAWYQQKAGQPPKLLIYWASTRESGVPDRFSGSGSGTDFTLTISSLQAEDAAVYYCQQYHREPLSFGGGTKVEIK", "group": "Ctrl", "Kd (apparent)": "180 nM", "detected": "1 of 6"}
{"VL": "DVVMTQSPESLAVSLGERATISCMISMVTEGMVRKHDSVAWYQQKAGQPPKLLIYDNSTRESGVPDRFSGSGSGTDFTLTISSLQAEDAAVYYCQQYDRLPLSFGGGTKVEIK", "group": "En_Gen", "Kd (apparent)": "24 nM", "detected": "6 of 6"}
{"VL": "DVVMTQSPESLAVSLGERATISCKSSISYLYESRNKNSVAWYQQKAGQPPKLLIYSASTRESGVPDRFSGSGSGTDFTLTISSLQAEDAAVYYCQQYHRLPLSFGGGTKVEIK", "group": "GP_HC", "Kd (apparent)": "8.7 nM", "detected": "6 of 6"}
{"VL": "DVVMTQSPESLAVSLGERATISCKLSQSNLYESRNSNSVAWYQQKAGQPPKLLIYNASTRESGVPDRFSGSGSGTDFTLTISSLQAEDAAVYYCQQYHRLPLSFGGGTKVEIK", "group": "GP_Gen", "Kd (apparent)": "860 pM", "detected": "6 of 6"}
{"VL": "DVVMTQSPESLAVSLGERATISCKSSQSVLYERRNKNSVAWYQQKAGQPPKLLIYWANTRESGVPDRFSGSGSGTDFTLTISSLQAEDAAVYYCQQYHRYPLSFGGGTKVEIK", "group": "Ctrl", "Kd (apparent)": "nd", "detected": "0 of 6"}
{"VL": "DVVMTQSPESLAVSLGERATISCHMKDEPGFGPQTYSSIAWYQQKAGQPPKLLIYHAEIREPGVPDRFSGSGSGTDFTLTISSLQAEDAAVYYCQQYYRLPLMFGGGTKVEIK", "group": "En_Gibbs", "Kd (apparent)": "2.4 nM", "detected": "6 of 6"}
{"VL": "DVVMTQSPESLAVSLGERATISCKSSQSVLYEDRNKNSVAWYQQKAGQPPKLLIYHASTRESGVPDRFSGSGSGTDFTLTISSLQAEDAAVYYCQQYHRLPLSFGGGTKVEIK", "group": "Ctrl", "Kd (apparent)": "960 pM", "detected": "6 of 6"}
{"VL": "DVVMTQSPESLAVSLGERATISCKLPQSTLYESRNKNSVAWYQQKAGQPPKLLIYAASTRESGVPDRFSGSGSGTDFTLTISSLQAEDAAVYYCQQYHRLPLSFGGGTKVEIK", "group": "GP_Gen", "Kd (apparent)": "770 pM", "detected": "6 of 6"}
{"VL": "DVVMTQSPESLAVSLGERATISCKSGQGVLYESRNANSVAWYQQKAGQPPKLLIYGASTRESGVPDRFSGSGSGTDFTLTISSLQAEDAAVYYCQQYHRLPLSFGGGTKVEIK", "group": "GP_HC", "Kd (apparent)": "1.4 nM", "detected": "6 of 6"}

Excerpt, the final 4 entries:

{"VL": "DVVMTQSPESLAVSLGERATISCHMKDEPGFGPQTYSSIAWYQQKAGQPPKLLIYHAEIREPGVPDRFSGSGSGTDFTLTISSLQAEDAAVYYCQQYYRLPLMFGGGTKVEIK", "group": "En_Gibbs", "Kd (apparent)": "2.4 nM", "detected": "6 of 6"}
{"VL": "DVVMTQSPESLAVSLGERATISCKSSQSVLYEDRNKNSVAWYQQKAGQPPKLLIYHASTRESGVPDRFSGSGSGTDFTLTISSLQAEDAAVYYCQQYHRLPLSFGGGTKVEIK", "group": "Ctrl", "Kd (apparent)": "960 pM", "detected": "6 of 6"}
{"VL": "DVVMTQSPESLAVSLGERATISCKLPQSTLYESRNKNSVAWYQQKAGQPPKLLIYAASTRESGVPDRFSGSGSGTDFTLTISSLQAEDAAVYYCQQYHRLPLSFGGGTKVEIK", "group": "GP_Gen", "Kd (apparent)": "770 pM", "detected": "6 of 6"}
{"VL": "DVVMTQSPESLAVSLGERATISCKSGQGVLYESRNANSVAWYQQKAGQPPKLLIYGASTRESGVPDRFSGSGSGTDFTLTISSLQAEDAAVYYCQQYHRLPLSFGGGTKVEIK", "group": "GP_HC", "Kd (apparent)": "1.4 nM", "detected": "6 of 6"}

A sequence measured in both rounds can read differently, since the two assays cover different ranges. In the paper, a design with two or fewer of six values counts as a poor binder.